Data as given in paper PMC5522071, “Preclinical development of G1T38: A novel, potent and selective inhibitor of cyclin dependent kinases 4/6 for use as an oral antineoplastic in patients with CDK4/6 sensitive tumors” (Oncotarget, 2017).

Sequences of proteins named here, by UniProt entry; tags and fusion partners are left off.
UniProt P50750, whole entry: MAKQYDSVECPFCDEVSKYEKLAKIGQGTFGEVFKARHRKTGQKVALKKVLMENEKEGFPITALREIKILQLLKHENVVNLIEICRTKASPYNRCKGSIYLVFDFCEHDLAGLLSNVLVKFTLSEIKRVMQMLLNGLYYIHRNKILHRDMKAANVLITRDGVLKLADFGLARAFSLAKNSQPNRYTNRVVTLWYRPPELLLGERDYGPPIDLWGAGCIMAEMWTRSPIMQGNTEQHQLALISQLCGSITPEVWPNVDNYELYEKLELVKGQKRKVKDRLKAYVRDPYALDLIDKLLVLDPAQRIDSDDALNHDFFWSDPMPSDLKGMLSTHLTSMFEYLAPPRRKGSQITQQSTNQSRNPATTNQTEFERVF

Target: T1, CDK9/Cyclin T (Homo sapiens, UniProt P50750)
T1 construct: purchased Nanosyn, Inc. (contract assay)
Conditions: at the biochemical IC50

Structure (SMILES): CC(C)N1CCN(c2ccc(Nc3ncc4cc5n(c4n3)C3(CCCCC3)CNC5=O)nc2)CC1.Cl.Cl [G1T38, 2′-((5-(4-isopropylpiperazin-1-yl)pyridin-2-yl)amino)-7′, 8′dihydro-6′Hspiro[cyclohexane1,9′ pyrazino[1′,2′:1,5]pyrrolo[2,3-d]pyrimidin]-6′-one di-hydrochloride]
- selectivity between CDK4/cyclin D1 and CDK9/cyclin T: ~ 30 fold
